PubChem AID 2061109: pyroptosis screen in mouse bone marrow macrophages, one dose (5 µM).
Target pathway: NLRP3 inflammasome, triggered by LPS and nigericin. Dead cells counted by propidium iodide.
Higher is more protection: 100% equals untreated cells, 0% the stimulated control, negative values set to 0. Active call (*): above 70%. Part of the library is listed.

SMILES | inhibition [%]
O=S(=O)(NC1CCC(c2cc(F)ccc2F)(S(=O)(=O)c2ccc(Cl)cc2)CC1)C(F)(F)F | 0.0
CCOC(=O)OC(C)OC1=C(C(=O)Nc2ccccn2)N(C)S(=O)(=O)c2ccccc21 | 0.0
CN(C)[C@@H]1C(=O)C(C(N)=O)=C(O)[C@@]2(O)C(=O)C3=C(O)c4c(O)cccc4[C@@](C)(O)[C@H]3[C@H](O)[C@@H]12 | 0.0
CCN1C[C@@]2(COC)[C@H]3[C@@H](OC)[C@H]4C1[C@]3([C@@H](OC)C[C@H]2OC(C)=O)[C@@H]1C[C@@]2(O)[C@H](OC(=O)c3ccccc3)[C@@H]1[C@]4(OC(C)=O)[C@@H](O)[C@@H]2OC | 62.1
Cc1ccc(S(=O)(=O)N[C@@H](Cc2ccccc2)C(=O)CCl)cc1 | 72.3*
CC(COc1ccccc1)NC(C)C(O)c1ccc(O)cc1.Cl | 0.0
Cc1ccccc1C(C(=O)NC1CCCCC1)N(C(=O)Cn1ccnc1C)c1cccc(F)c1 | 0.0
CCC(=O)c1ccc2c(c1)N(CCCN(C)C)c1ccccc1S2.Cl | 7.2
Cl.Cl.NC/C=C(\F)CS(=O)(=O)c1cccc2cccnc12 | 0.0
O=C(Nc1cccc(C(F)(F)F)c1)c1cccc2cc(Oc3cc(CO)ncn3)ccc12 | 0.0
CC1(C)C(=O)Nc2cc3nc(-c4ccncc4)[nH]c3cc21 | 0.0
CCCCCCOc1cc2c(cc1N(C)c1ncc(C(=O)O)cn1)C(C)(C)CCC2(C)C | 54.4
Cl.O.O=C1Cc2cc(CCN3CCN(c4nsc5ccccc45)CC3)c(Cl)cc2N1 | 0.0
CCCS(=O)(=O)Nc1ccc(F)c(-n2cc(-c3cncnc3)c3nc(N(C)C4CCN(CC)CC4)ccc32)c1F | 0.0
COc1ccccc1N1CCN(CCCNC(=O)c2cccc3c(=O)c(C)c(-c4ccccc4)oc23)CC1 | 36.8
CN(c1ccc(NC(=O)Nc2ccc(OC(F)(F)F)cc2)cc1)c1ccnc(Nc2cccc(S(N)(=O)=O)c2)n1 | 0.0
CC(=O)N1CCN(c2ccc(OC[C@H]3CO[C@](Cn4ccnc4)(c4ccc(Cl)cc4Cl)O3)cc2)CC1 | 0.0
Cc1cc(-c2ccccc2)nnc1NCCN1CCOCC1.Cl.Cl | 0.0
FC(F)(F)c1ccc(/C=C/c2nc(COc3ccc(CCCCn4ccnn4)cc3)co2)cc1 | 0.0
COc1ncc(-c2ccc3ncc(Cl)c(=O)n3c2)cc1NS(=O)(=O)c1ccc(F)cc1F | 76.9*
CC[C@@]1(O)C(=O)OCc2c1cc1n(c2=O)Cc2cc3c(CN(C)C)c(O)ccc3nc2-1 | 0.0
O=C(NC(=O)c1c(F)cccc1F)Nc1cc(Cl)c(OC(F)(F)C(F)F)c(Cl)c1 | 63.5
Cc1c(Br)cc(NCC(=O)N/N=C/c2cc([N+](=O)[O-])ccc2O)cc1Br | 6.9
CN1CCN(C2=Nc3ccccc3Oc3ccc(Cl)cc32)CC1 | 0.0
CCCCCOc1ccc(-c2cc(-c3ccc(C(=O)N[C@H]4C[C@@H](O)[C@@H](O)NC(=O)[C@@H]5[C@@H](O)[C@@H](C)CN5C(=O)[C@H]([C@H](O)CC(N)=O)NC(=O)[C@H]([C@H](O)[C@@H](O)c5ccc(O)c(OS(=O)(=O)[O-])c5)NC(=O)[C@@H]5C[C@@H](O)CN5C(=O)[C@H]([C@@H](C)O)NC4=O)cc3)no2)cc1.[Na+] | 0.0
COC1CCC(N(C(=O)C2CCC(C)CC2)c2cc(C3=CCCCC3)sc2C(=O)O)CC1 | 45.7
C[C@@H](OC[C@@]1(c2ccccc2)CC[C@]2(CCC(=O)N2)CN1)c1cc(C(F)(F)F)cc(C(F)(F)F)c1.Cl | 25.1
N#Cc1ccc2ncnc(NC3CCC(N4CCOCC4)CC3)c2c1 | 27.7
O=C1C2=C(CCN(Cc3ccccc3)C2)N2CCN=C2N1Cc1ccc(F)cc1F | 0.0
CCCCCCC/C=C/C(=O)CCc1ccc(O)c(OC)c1 | 0.0
COc1cc2nc(N3CCN(C(=O)C4COc5ccccc5O4)CC3)nc(N)c2cc1OC | 0.0
OCCOc1ccccc1 | 0.0
CCCCCc1cc(O)c(C/C=C(\C)CCC=C(C)C)c(O)c1 | 27.1
CC(C)=CCC/C(C)=C/CC/C(C)=C/CC/C(C)=C/CO | 0.0
O=c1[nH]c(CSC2CCC(O)CC2)nc2cc(OCC3CC3)cc(F)c12 | 46.5
CCCCC1(C2CCCC2)Cc2cc(OCCCC(=O)O)c(Cl)c(Cl)c2C1=O | 0.0
COc1ncc(-c2nc3c(n2C(C)C)[C@H](c2ccc(Cl)cc2)N(c2cc(Cl)cn(C)c2=O)C3=O)c(OC)n1 | 37.7
O=C(CNC(=O)c1ccc(C2=NOC(c3cc(Cl)cc(C(F)(F)F)c3)(C(F)(F)F)C2)c2ccccc12)NCC(F)(F)F | 25.3
CCOC(=O)[C@H](CCc1ccccc1)N[C@H]1CS[C@H](c2cccs2)CN(CC(=O)O)C1=O.Cl | 34.0
Nc1cccc2c(=O)[n-][nH]c(=O)c12.[Na+] | 0.0
Fc1ccc(Nc2nc(Nc3ccc(-c4nc5ccccc5[nH]4)cc3)nc(N3CCOCC3)n2)cc1 | 0.0
CS(=O)(=O)c1ccc(-c2cc(C#N)nn2-c2ccc(F)cc2)cc1 | 45.2
Cn1c(=O)c2ncnnc2n(C)c1=O | 0.0
Cc1cc2ncc(-c3ccc(O)c(O)c3)nc2cc1C | 21.6
CC(=O)N[C@@H](Cc1c[nH]c2ccccc12)C(=O)OCc1cc(C(F)(F)F)cc(C(F)(F)F)c1 | 63.9
COc1cc(OC)c2c(=O)c(OCCCCN3CCN(C(=O)c4ccncc4)CC3)c(-c3cc(OC)c(OC)c(OC)c3)oc2c1 | 16.5
CNC(=O)c1ccccc1Sc1ccc2c(/C=C/c3ccccn3)n[nH]c2c1 | 42.6
O=C(NC(=O)c1c(F)cccc1F)Nc1ccc(Cl)cc1 | 85.9*
CC1(C)Cc2c(CN3CCC4(CC3)CCN(C(=O)c3ccc(N)cn3)CC4)cccc2O1 | 0.0
CN1CCN(C(=O)CN[C@@H]2C[C@H]2c2ccc(OCc3ccccc3)cc2)CC1.Cl.Cl | 0.0
COc1ccc(C(CC(N)=O)N2C(=O)c3ccccc3C2=O)cc1OC1CCCC1 | 46.4
NC(=O)C(=O)[O-].[Na+] | 20.1
S=C([S-])N1CCCC1.[NH4+] | 47.9
CCOc1nc2cccc(C(=O)O)c2n1Cc1ccc(-c2ccccc2-c2noc(=O)[nH]2)cc1 | 6.2
O=C1NC(=O)C2(CCOc3ccc(F)cc32)N1 | 46.1
Cl.Cl.Fc1ccc(C(OCCN2CCN(CCCc3ccccc3)CC2)c2ccc(F)cc2)cc1 | 0.0
O=C(O)c1cc(Oc2ccc([N+](=O)[O-])cc2)cc(Oc2ccc([N+](=O)[O-])cc2)c1 | 42.0
O=C(Nc1cccnc1)c1cc(C(=O)c2c(F)cccc2Br)c[nH]1 | 0.0
OC[C@H]1O[C@@H]2O[C@H]3[C@H](O)[C@@H](O)[C@@H](O[C@H]4[C@H](O)[C@@H](O)[C@@H](O[C@H]5[C@H](O)[C@@H](O)[C@@H](O[C@H]6[C@H](O)[C@@H](O)[C@@H](O[C@H]7[C@H](O)[C@@H](O)[C@@H](O[C@H]8[C@H](O)[C@@H](O)[C@@H](O[C@H]1[C@H](O)[C@H]2O)O[C@@H]8CO)O[C@@H]7CO)O[C@@H]6CO)O[C@@H]5CO)O[C@@H]4CO)O[C@@H]3CO | 0.0
COc1ccc(-c2cc(=O)c3c(O)cc(O[C@@H]4O[C@H](CO[C@@H]5O[C@@H](C)[C@H](O)[C@@H](O)[C@H]5O)[C@@H](O)[C@H](O)[C@H]4O)cc3o2)cc1 | 62.4
CCN(CC)c1ccc(C=O)cc1 | 0.0
C=C1CC[C@H](O)C/C1=C/C=C1\CCC[C@]2(C)[C@@H]([C@H](C)/C=C/[C@H](C)C(C)C)CC[C@@H]12 | 0.0
Brc1cccc(-c2cc(-c3ccc4c(c3)OCO4)[nH]n2)c1 | 0.0
CC(=O)OC(C)C(C)C(=O)OC[C@@]12[C@H]3C[C@]4(C)C(=CC[C@@H]5[C@@]6(C)CC[C@H](O[C@@H]7O[C@H](C(=O)[O-])[C@@H](O[C@@H]8O[C@H](CO)[C@@H](O)[C@H](O)[C@H]8O)[C@H](O)[C@H]7O[C@@H]7OC[C@@H](O)[C@H](O)[C@H]7O)[C@@](C)(CO)[C@@H]6CC[C@]54C)[C@@H]1CC(C)(C)[C@H](O3)[C@@H]2O.[Na+] | 30.9
CC(=O)NCCc1c(Cc2ccccc2)[nH]c2ccccc12 | 15.3
COC(=O)c1ccc2[nH]c(O)c(C(=Nc3ccc(N(C)C(=O)CN4CCN(C)CC4)cc3)c3ccccc3)c2c1 | 23.8

Repeating the final 10 entries:

SMILES,inhibition [%]
O=C(O)c1cc(Oc2ccc([N+](=O)[O-])cc2)cc(Oc2ccc([N+](=O)[O-])cc2)c1,42.0
O=C(Nc1cccnc1)c1cc(C(=O)c2c(F)cccc2Br)c[nH]1,0.0
OC[C@H]1O[C@@H]2O[C@H]3[C@H](O)[C@@H](O)[C@@H](O[C@H]4[C@H](O)[C@@H](O)[C@@H](O[C@H]5[C@H](O)[C@@H](O)[C@@H](O[C@H]6[C@H](O)[C@@H](O)[C@@H](O[C@H]7[C@H](O)[C@@H](O)[C@@H](O[C@H]8[C@H](O)[C@@H](O)[C@@H](O[C@H]1[C@H](O)[C@H]2O)O[C@@H]8CO)O[C@@H]7CO)O[C@@H]6CO)O[C@@H]5CO)O[C@@H]4CO)O[C@@H]3CO,0.0
COc1ccc(-c2cc(=O)c3c(O)cc(O[C@@H]4O[C@H](CO[C@@H]5O[C@@H](C)[C@H](O)[C@@H](O)[C@H]5O)[C@@H](O)[C@H](O)[C@H]4O)cc3o2)cc1,62.4
CCN(CC)c1ccc(C=O)cc1,0.0
C=C1CC[C@H](O)C/C1=C/C=C1\CCC[C@]2(C)[C@@H]([C@H](C)/C=C/[C@H](C)C(C)C)CC[C@@H]12,0.0
Brc1cccc(-c2cc(-c3ccc4c(c3)OCO4)[nH]n2)c1,0.0
CC(=O)OC(C)C(C)C(=O)OC[C@@]12[C@H]3C[C@]4(C)C(=CC[C@@H]5[C@@]6(C)CC[C@H](O[C@@H]7O[C@H](C(=O)[O-])[C@@H](O[C@@H]8O[C@H](CO)[C@@H](O)[C@H](O)[C@H]8O)[C@H](O)[C@H]7O[C@@H]7OC[C@@H](O)[C@H](O)[C@H]7O)[C@@](C)(CO)[C@@H]6CC[C@]54C)[C@@H]1CC(C)(C)[C@H](O3)[C@@H]2O.[Na+],30.9
CC(=O)NCCc1c(Cc2ccccc2)[nH]c2ccccc12,15.3
COC(=O)c1ccc2[nH]c(O)c(C(=Nc3ccc(N(C)C(=O)CN4CCN(C)CC4)cc3)c3ccccc3)c2c1,23.8